From US10457677B2 (priority 2015, dated 2019)

Amino acid sequences for entries named in this document (tags omitted). A change or cut given only in a name is not applied to a line headed by its entry.
UniProt P48736: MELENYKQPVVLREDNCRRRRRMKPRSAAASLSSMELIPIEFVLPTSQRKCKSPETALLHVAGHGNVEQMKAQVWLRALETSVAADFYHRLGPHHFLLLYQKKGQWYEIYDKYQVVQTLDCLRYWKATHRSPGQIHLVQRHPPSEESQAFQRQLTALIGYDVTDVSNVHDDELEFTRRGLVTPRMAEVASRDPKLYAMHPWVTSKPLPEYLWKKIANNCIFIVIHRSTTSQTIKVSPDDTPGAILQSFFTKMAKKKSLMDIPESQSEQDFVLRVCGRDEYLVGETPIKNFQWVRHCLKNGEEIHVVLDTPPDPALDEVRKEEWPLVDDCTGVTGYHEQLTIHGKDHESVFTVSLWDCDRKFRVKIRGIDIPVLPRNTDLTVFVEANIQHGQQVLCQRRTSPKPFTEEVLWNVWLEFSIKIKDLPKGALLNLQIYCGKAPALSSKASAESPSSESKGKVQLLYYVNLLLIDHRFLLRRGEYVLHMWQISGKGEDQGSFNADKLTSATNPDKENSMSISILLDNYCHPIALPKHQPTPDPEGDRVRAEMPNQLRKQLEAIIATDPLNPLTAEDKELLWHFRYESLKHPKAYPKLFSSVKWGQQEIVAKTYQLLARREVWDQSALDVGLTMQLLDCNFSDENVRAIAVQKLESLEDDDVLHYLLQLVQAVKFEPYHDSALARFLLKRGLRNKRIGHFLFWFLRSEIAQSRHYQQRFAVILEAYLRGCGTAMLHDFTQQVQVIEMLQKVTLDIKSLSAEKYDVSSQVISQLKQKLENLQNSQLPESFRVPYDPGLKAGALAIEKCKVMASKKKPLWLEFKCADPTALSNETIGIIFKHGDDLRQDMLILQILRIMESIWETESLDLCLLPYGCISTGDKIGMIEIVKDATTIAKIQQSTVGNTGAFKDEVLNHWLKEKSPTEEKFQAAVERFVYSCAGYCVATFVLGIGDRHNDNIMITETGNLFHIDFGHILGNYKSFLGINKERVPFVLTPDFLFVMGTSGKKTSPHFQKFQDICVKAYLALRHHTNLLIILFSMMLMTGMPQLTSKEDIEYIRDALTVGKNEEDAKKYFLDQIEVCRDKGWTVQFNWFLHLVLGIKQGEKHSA
UniProt P42336, whole entry: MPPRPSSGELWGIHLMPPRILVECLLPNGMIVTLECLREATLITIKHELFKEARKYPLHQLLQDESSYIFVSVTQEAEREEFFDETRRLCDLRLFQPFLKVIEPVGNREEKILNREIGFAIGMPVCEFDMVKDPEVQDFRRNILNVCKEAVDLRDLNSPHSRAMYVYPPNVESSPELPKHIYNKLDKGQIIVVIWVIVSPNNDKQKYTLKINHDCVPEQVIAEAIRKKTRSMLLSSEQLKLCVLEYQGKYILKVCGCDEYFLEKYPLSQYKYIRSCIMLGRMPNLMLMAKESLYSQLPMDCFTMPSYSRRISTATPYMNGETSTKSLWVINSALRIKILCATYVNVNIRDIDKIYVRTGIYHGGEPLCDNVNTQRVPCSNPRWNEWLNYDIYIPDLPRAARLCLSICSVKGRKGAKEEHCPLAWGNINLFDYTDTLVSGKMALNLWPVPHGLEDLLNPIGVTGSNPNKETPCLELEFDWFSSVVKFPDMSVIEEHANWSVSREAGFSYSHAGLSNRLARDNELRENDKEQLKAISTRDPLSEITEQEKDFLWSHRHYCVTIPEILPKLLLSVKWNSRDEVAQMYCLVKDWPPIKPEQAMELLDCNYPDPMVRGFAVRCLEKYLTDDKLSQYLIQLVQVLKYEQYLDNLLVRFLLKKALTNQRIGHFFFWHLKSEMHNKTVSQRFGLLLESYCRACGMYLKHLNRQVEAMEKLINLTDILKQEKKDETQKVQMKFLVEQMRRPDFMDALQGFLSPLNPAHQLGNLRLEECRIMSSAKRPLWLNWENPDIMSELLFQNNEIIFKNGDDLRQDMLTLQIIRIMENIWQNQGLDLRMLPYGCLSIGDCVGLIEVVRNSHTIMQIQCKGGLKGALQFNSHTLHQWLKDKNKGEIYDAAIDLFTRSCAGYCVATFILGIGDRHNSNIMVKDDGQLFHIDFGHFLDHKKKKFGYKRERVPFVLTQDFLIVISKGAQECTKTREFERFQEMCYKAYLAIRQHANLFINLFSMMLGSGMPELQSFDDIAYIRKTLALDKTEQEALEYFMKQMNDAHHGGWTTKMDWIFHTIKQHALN
UniProt O00329: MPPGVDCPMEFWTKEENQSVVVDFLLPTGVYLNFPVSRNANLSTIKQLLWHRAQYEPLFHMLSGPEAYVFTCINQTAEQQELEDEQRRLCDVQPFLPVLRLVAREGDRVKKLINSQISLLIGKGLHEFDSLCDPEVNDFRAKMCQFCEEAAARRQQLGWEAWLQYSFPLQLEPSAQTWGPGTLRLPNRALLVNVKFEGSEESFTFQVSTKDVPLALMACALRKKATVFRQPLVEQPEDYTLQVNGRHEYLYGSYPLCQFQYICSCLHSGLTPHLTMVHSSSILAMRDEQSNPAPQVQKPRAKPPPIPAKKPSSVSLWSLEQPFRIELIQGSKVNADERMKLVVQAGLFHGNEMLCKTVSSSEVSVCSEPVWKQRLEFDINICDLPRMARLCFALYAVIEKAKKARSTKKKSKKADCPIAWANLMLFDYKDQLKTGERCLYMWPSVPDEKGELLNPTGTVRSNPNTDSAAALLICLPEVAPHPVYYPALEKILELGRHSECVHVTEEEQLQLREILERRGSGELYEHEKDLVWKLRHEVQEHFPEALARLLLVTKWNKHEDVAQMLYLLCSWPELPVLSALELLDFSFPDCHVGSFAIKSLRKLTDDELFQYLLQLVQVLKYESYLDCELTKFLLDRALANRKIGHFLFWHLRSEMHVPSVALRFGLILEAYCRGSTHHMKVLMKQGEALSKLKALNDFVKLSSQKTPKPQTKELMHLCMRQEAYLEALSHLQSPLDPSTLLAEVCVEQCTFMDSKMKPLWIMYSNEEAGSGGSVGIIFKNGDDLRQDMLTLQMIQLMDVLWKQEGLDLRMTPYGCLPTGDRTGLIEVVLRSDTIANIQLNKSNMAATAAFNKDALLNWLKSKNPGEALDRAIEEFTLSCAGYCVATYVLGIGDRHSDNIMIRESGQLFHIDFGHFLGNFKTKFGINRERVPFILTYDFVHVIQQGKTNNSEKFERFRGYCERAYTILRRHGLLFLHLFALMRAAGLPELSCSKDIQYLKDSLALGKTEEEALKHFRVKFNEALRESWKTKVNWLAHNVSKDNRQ

Experiments:
Format in all cases: biochemical
Conditions in all cases: as printed:
PI3K (p120γ) (human) = PI3K (p120γ) (human) (Homo sapiens (Human), UniProt P48736); assay: PI3K (p120γ) (human), non-radioactive assay (HTRF)
Protocol: PI3K (p120γ) (Human), Non-radioactive Assay
PI3K (p120γ) (human) was incubated in an assay buffer comprising 10 μM phosphati-dylinositol 4,5-bisphosphate and MgATP (concentration as necessary). The reaction was initiated by addition of MgATP solution. After an incubation time of 30 min at room temperature, the reaction was stopped by addition of a solution consisting of EDTA and biotinylated phosphatidylinositol 3,4,5-trisphosphate. Finally, the detection buffer, consisting of a europium-labelled anti-GST monoclonal antibody, a GST-labelled GRP1 PH domain and streptavidin allophycocyanin, was added. The plate was read out via homogeneous time-resolved fluorescence (HTRF) and the corresponding signals were evaluated via the formula HTRF=10000×(Em665nm/Em620nm). • MgATP=magnesium 5′-O—[hydroxy({[(hydroxyphosphinato)oxy]phosphinato}oxy)phosphoryl]adenosine • MgCl2=magnesium dichloride • EGTA=ethylene glycol bis(aminoethyl ether) N,N,N′,N′-tetraacetic acid • Tween 20=polysorbate 20 Medicament/pharmaceutical Composition

PI3K p110α/p85α (human) = PI3K p110α/p85α (human) (Homo sapiens (Human), UniProt P42336); assay: PI3K p110α/p85α (human), non-radioactive assay (HTRF)
Protocol: PI3K p110α/p85α (Human), Non-radioactive Assay
(§1) PI3K p110α/p85α (human) was incubated in an assay buffer comprising 10 μM phosphati-dylinositol 4,5-bisphosphate and MgATP (concentration as necessary). The reaction was initiated by addition of MgATP solution. After incubation at room temperature for 40 minutes, the reaction was stopped by addition of a solution consisting of EDTA and biotinylated phosphatidylinositol 3,4,5-trisphosphate. Finally, the detection buffer, consisting of a europium-labelled anti-GST monoclonal antibody, a GST-labelled GRP1 PH domain and streptavidin allophycocyanin, was added. The plate was read out via homogeneous time-resolved fluorescence (HTRF) and the corresponding signals were evaluated via the formula HTRF=10000×(Em665nm/Em620nm).

PI3K p110δ/p85α (human) = PI3K p110δ/p85α (human) (Homo sapiens (Human), UniProt O00329); assay: PI3K p110δ/p85α (human), non-radioactive assay (HTRF)
Protocol: PI3K p110δ/p85α (Human), Non-radioactive Assay
as §1, with “p110δ/p85α” for “p110α/p85α”, “After an” for “After”, “incubation time of 30 min” for “incubation”, “temperature,” for “temperature for 40 minutes,”

COc1cnc(-n2c(=O)n(C)c3cnc4cc(OC)c(-c5cnn(C)c5)cc4c32)c(F)c1 [compound 105, 1-(3-Fluoro-5-methoxy-pyridin-2-yl)-7-methoxy-3-methyl-8-(1-methyl-1H-pyrazol-4-yl)-1,3-dihydro-imidazo[4,5-c]quinolin-2-one]
at least 2000 times: ratio IC50 (ATM) vs PI3Kgamma, selectivity with respect to PI3Kgamma (PI3K (p120γ) (human)) | ratio IC50 (ATM) vs PI3Kalpha, selectivity with respect to PI3Kalpha (PI3K p110α/p85α (human)) | ratio IC50 (ATM) vs PI3Kdelta, selectivity with respect to PI3Kdelta (PI3K p110δ/p85α (human))

[2H]C([2H])([2H])Oc1cnc(-n2c(=O)n(C)c3cnc4cc(OC)c(-c5cnn(C)c5)cc4c32)c(F)c1 [compound 155, 1-[3-Fluoro-5-(trideuterio-methoxy)-2-pyridyl]-7-methoxy-3-methyl-8-(1-methylpyrazol-4-yl) imidazo-[4,5-c]quinolin-2-one]
at least 2000 times: ratio IC50 (ATM) vs PI3Kgamma, selectivity with respect to PI3Kgamma (PI3K (p120γ) (human)) | ratio IC50 (ATM) vs PI3Kalpha, selectivity with respect to PI3Kalpha (PI3K p110α/p85α (human)) | ratio IC50 (ATM) vs PI3Kdelta, selectivity with respect to PI3Kdelta (PI3K p110δ/p85α (human))
